Measurements published in patent US7772216B2, “Protein kinase and phosphatase inhibitors and methods for designing them” (The Research Foundation of State University of New York, priority 2001, dated 2010).

Biological target: pp60^c-src (Homo sapiens, UniProt P12931)
Assay: Cellular Mimetic Src assay (RR-SRC phosphorylation)

N#C/C(=C\c1ccc(O)c(O)c1)C(N)=S [Tyrophostin A47, Tyrphostin A47, reference compound]
% Inhibition at 100 μM (std. dev.): 43 (+/−3) %
